The assay deals with human CCR-3 (Homo sapiens, UniProt P51677). Kind of assay: CCR-3 binding assay (SPA, [125I]-human eotaxin). As to conditions: read-out: IC50, inhibition of binding of human eotaxin to human CCR-3, membranes of RBL-2H3 cells stably expressing CCR3, 4 hours at room temperature. The procedure: In this assay the effect of agents of the invention on the binding of human eotaxin to human CCR-3 is determined. Recombinant cells expressing human CCR-3 are captured by wheatgerm agglutinin (WGA) polyvinyltoluidene (PVT) SPA beads (available from Amersham), through a specific interaction between the WGA and carbohydrate residues of glycoproteins on the surface of the cells. [^125I]-human eotaxin (available from Amersham) binds specifically to CCR-3 receptors bringing the [^125I]-human eotaxin in close proximity to the SPA beads. Emitted â-particles from the [^125I]-human eotaxin excite, by its proximity, the fluorophore in the beads and produce light.
Preparation of Assay Buffer: 5.96 g HEPES and 7.0 g sodium chloride are dissolved in distilled water and 1M aqueous CaCl2 (1 ml) and 1M aqueous MgCl2 (5 ml) are added. The pH is adjusted to 7.6 with NaOH and the solution made to a final volume of 1 L using distilled water. 5 g bovine serum albumin and 0.1 g sodium azide are then dissolved in the solution and the resulting buffer stored at 4° C. A Complete™ protease inhibitor cocktail tablet (available from Boehringer) is added per 50 ml of the buffer on the day of use.
Preparation of Homogenisation Buffer: Tris-base (2.42 g) is dissolved in distilled water, the pH of the solution is adjusted to 7.6 with hydrochloric acid and the solution is diluted with distilled water to a final volume of 1 l. The resulting buffer is stored at 4° C. A Complete™ protease inhibitor cocktail tablet is added per 50 ml of the buffer on the day of use.
Preparation of membranes: Confluent rat basophil leukemia (RBL-2H3) cells stably expressing CCR3 are removed from tissue culture flasks using enzyme-free cell dissociation buffer and resuspended in phosphate-buffered saline. The cells are centrifuged (800 g, 5 minutes), the pellet resuspended in ice-cold homogenisation buffer using 1 ml homogenisation buffer per gram of cells and incubated on ice for 30 minutes. The cells are homogenised on ice with 10 strokes in a glass mortar and pestle. The homogenate is centrifuged (800 g, 5 minutes, 4° C.), the supernatant further centrifuged (48,000 g, 30 minutes, 4° C.) and the pellet redissolved in Homogenisation Buffer containing 10% (v/v) glycerol. The protein content of the membrane preparation is estimated by the method of Bradford (Anal. Biochem. (1976) 72:248) and aliquots are snap frozen and stored at −80° C.
The assay is performed in a final volume of 250 μl per well of an Optiplate™ microplate (ex Canberra Packard). […] The resulting scintillations are counted using a Canberra Packard TopCount™ scintillation counter, each well being counted for 1 minute. […]

Sequences of proteins named here, by UniProt entry; tags and fusion partners are left off.
UniProt P51677, whole entry: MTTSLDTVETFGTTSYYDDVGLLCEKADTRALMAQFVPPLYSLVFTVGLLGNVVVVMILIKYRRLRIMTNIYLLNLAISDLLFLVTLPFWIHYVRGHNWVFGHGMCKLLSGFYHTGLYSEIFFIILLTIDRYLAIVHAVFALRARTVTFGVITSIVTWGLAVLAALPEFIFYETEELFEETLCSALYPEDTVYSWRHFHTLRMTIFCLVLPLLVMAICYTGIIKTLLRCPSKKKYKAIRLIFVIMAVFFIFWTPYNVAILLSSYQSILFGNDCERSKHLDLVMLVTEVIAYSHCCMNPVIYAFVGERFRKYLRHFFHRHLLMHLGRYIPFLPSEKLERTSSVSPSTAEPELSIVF

SMILES strings stand for the structures.

A word on the IC50: it is the concentration that gives 50% inhibition. Turning to `CCc1cc(NC(=O)N[C@H](CO)CCN2CC(Oc3ccc(Cl)cc3)C2)n(C(C)(C)C)n1`, the half-maximal inhibitory concentration (IC50) is 2 nM. Take `Cc1ccc(NC(=O)NC(CO)CCN2CC(Oc3ccc(Cl)cc3)C2)cc1` (stereo not shown): the IC50 amounted to 11 nM.

Turning to `Cn1nc(C2CC2)cc1NC(=O)N[C@H](CO)CCN1CC(Oc2ccc(Cl)c(Cl)c2)C1`, the 50% inhibitory concentration (IC50) is 12 nM. Turning to `COc1cc(NC(=O)NC(CO)CCN2CC(C(=O)c3ccc(Cl)cc3)C2)cc(OC)c1` (stereo not shown), the 50% inhibitory concentration (IC50) was 18 nM.

Source of the values: patent publication US7288537B2, “Azetidine derivatives as CCR-3 receptor antagonists” (Novartis AG, priority 2002, dated 2007).
